The target in experiment [1] is T1, recombinant form of Glutaminase 1 (GAC) (Homo sapiens, UniProt O94925).
T1 sequence (O94925 137-598 isoform O94925-3 limits assumed): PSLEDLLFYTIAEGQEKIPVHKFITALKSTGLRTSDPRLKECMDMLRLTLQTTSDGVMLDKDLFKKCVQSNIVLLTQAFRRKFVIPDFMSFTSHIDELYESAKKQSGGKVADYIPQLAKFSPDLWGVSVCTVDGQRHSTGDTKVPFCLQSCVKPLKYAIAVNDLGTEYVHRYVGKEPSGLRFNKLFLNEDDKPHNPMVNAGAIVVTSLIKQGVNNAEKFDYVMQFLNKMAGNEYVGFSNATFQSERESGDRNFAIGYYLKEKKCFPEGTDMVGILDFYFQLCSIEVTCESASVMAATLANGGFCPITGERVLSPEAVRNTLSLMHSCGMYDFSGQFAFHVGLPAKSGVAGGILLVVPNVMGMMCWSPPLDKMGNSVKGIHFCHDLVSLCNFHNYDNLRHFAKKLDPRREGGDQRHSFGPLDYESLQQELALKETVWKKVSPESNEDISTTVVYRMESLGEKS
The experiment is described as follows: Recombinant Enzyme Assay - Time Dependence (60 min preincubation). The experiment is classed as biochemical. The conditions noted are these: read-out: GAC Delta N2 IC50 60 min preinc. The procedure: The enzyme/compound mix was sealed with sealing foil (USA Scientific) and allowed to incubate, with mild agitation, for 60 minutes at 20° C. Enzymatic reaction was started with the addition of 50 μL of substrate solution (50 mM Tris-HCl pH 8.0, 0.2 mM EDTA, 150 mM K2HPO4, 0.1 mg/ml BSA, 1 mM DTT, 20 mM L-glutamine, 2 mM NAD^+, and 10 ppm antifoam) and read in a Molecular Devices M5 plate reader at 20° C. The plate reader was configured to read absorbance (=340 nm) in kinetic mode for 15 minutes. Data was recorded as milli-absorbance units per minute and slopes were compared to a control compound and a DMSO-only control on the same plate. Compounds with slopes less than the DMSO control were considered inhibitors and plate variability was assessed using the control compound.

Experiment [2] has as its target T1, recombinant form of Glutaminase 1 (GAC). The experiment is described as follows: Recombinant Enzyme Assay (no preincubation).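 Note: GDH-coupled GAC activity read as absorbance at 340 nm in kinetic mode over 15 min at 20 °C, slopes compared with a DMSO-only control, lower slope means inhibition.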 The format is biochemical. The conditions noted are these: read-out: GAC Delta N2 IC50 no preinc.
In another experiment the test system is P493-6 (myc "on") cells. The experiment is described as follows: Cell Proliferation Assay. The format is cell-based. The conditions noted are these: P493-6, 72 h, read-out: Cell prolif P493 72 h IC50. The procedure: P493-6 (myc “on”) cells were maintained in growth media (RPMI-1640, 10% FBS, 2 mM glutamine, 100 units/ml Penicillin and 100 μg/ml streptomycin) at 37° C. with 5% CO2. For compound assay, P493-6 cells were plated in 96-well V-bottom plates on the day of compound addition in 50 μl of growth media at a cell density of 200,000 cells/ml (10,000 cells/well). Compounds were serially diluted in 100% DMSO at 200-times the final concentration. Compounds were diluted 100-fold into growth media and then 50 μl of this mixture was added to cell plates making the final concentration of DMSO 0.5%. Cells were incubated with compound for 72 hrs at 37° C. with 5% CO2 and analyzed for antiproliferative effects either by Cell Titer Glo (Promega) or FACS analysis using the Viacount (Millipore) kit on the Guava instrument.

pIC50: −log10 of the molar value.

Regarding `O=C(Cc1ccccc1)Nc1ccc(CCCCc2nnc(NC(=O)C(O)c3ccccc3)s2)nn1` (stereo not shown) [Compound 315], the pIC50 in experiment [1] is 7.77; in experiment [2] it was 6.92. `Nc1nnc(CCSCCc2nnc(NC(=O)Cc3ccccc3)s2)s1` [Compound 17, N-(5-(2-((2-(5-amino-1,3,4-thiadiazol-2-yl)ethyl)thio)ethyl)-1,3,4-thiadiazol-2-yl)-2-phenylacetamide]: the pIC50 with P493-6 (myc "on") cells was 5.38. For `Nc1ccc(CCCCc2nnc(NC(=O)Cc3ccccc3)s2)nn1` [Compound 348, N-(5-(4-(6-aminopyridazin-3-yl)butyl)-1,3,4-thiadiazol-2-yl)-2-phenylacetamide], the pIC50 in experiment [2] was 6.00. With `O=C(Cc1ccccc1)Nc1ccc(CCCCc2nnc(NC(=O)[C@@H](O)c3ccccc3)s2)nn1` [Compound 350], the pIC50 in experiment [2] is 7.10. On to `O=C(Cc1cccc(OCCO)c1)Nc1nnc(CCSCCc2nnc(NC(=O)Cc3cccc(OCCO)c3)s2)s1` [Compound 236], for which the pIC50 in experiment [2] was 6.70.

On to `CC(C)(C)OC(=O)NCc1cccc(CC(=O)Nc2ccc(CCCCc3nnc(NC(=O)Cc4ccccc4)s3)nn2)c1` [Compound 367], for which the pIC50 in experiment [1] was 8.70; in experiment [2], 6.92. Regarding `Nc1nnc(CCCCc2ccc(NC(=O)Cc3ccccc3)nn2)s1` [Compound 342], the pIC50 in experiment [2] is 5.85. Same read-out and setting: next, `N[C@H](C(=O)Nc1nnc(CCCCc2nnc(NC(=O)[C@@H](N)c3ccccc3)s2)s1)c1ccccc1` [Compound 187]: 5.55. For `COc1cccc(C(O)C(=O)Nc2nnc(CCCCc3ccc(NC(=O)Cc4ccccc4)nn3)s2)c1` (stereo not shown) [Compound 317], the pIC50 is 8.15 in experiment [1] and 6.74 in experiment [2]. The matching figures for `NCc1cccc(CC(=O)Nc2nnc(CCCCc3ccc(NC(=O)Cc4ccccc4)nn3)s2)c1` [Compound 341]: 7.89 and 6.89. As for `COc1cccc(CC(=O)Nc2nnc(CCSCCc3nnc(NC(=O)Cc4cccc(OC)c4)s3)s2)c1` [Compound 156], the pIC50 in experiment [2] was 6.92.

For `O=C(Cc1ccccc1)Nc1ccc(CCCCc2nnc(NC(=O)NCc3ccccc3)s2)nn1` [Compound 352], the pIC50 in experiment [2] was 7.16.

(Values after patent US20150004134A1, “TREATMENT OF CANCER WITH HETEROCYCLIC INHIBITORS OF GLUTAMINASE” (Calithera Biosciences, Inc., priority 2012, published 2015).)
